Reference: patent US8569295B2, “Bicyclic urea compounds” (Merck Patent GmbH, priority 2009, dated 2013)

Protein sequences, listed by entry. Tags and fused reporters are not part of them.
UniProt O14965, whole entry: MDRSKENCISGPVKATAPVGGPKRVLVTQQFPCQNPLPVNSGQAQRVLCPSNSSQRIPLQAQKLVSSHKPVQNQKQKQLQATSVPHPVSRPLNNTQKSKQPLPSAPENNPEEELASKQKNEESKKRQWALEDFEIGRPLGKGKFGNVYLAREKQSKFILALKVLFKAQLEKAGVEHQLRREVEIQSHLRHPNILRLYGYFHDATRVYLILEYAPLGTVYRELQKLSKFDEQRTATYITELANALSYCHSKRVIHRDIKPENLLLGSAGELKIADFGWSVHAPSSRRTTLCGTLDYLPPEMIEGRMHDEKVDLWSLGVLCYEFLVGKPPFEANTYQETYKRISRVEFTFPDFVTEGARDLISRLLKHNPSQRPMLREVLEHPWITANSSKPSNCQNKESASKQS

Target: GST-Aurora A (Homo sapiens, UniProt O14965)
Test: Aurora A kinase biochemical mobility shift assay (Caliper LC3000 / Desktop Profiler)
Settings: read-out: IC50 (AK); AK A (Aurora kinase A) inhibition
Method: The Aurora assays described here are performed on two Caliper Life Sciences systems: the LC3000 and the Desktop Profiler. The RON kinase assays are performed on the Desktop Profiler only. These provide data on enzyme activity via measurement of the relative amounts of phosphorylated or unphosphorylated fluorescently labelled substrate peptide at the end of an enzymatic reaction. These different states of peptide are resolved by applying a potential difference across the sample. The presence of the charged phosphate group on the product (as opposed to the substrate) causes a different peptide mobility between the two peptides. This is visualized by excitation of the fluorescent label on the substrate and product peptides and represented as peaks within the analysis software. […]
The plate is read on a Caliper LC3000 in an Off-Chip mobility shift assay format, using the following parameters for a 12-sipper chip: screening pressure −1.8 psi, upstream voltage −2700, downstream voltage −1000. […] The percent conversion can be plotted against concentration of inhibitor to produce a sigmoidal dose response curve, from which an IC50 can be calculated using XLFit for Microsoft Excel. […]
Reading of the plate in the Profiler is identical to the LC3000, and the ratio between substrate and product peaks provides the activity of the enzyme in that well. […]

SMILES	IC50
Cn1ccc(N2Cc3c(Nc4ccc(NC(=O)c5ccccc5)cc4)ccnc3NC2=O)n1	10 to 100 nM
Cn1ccc(N2Cc3c(Nc4ccc(NC(=O)c5ccc(F)cc5C(F)(F)F)cc4)ccnc3NC2=O)n1	10 to 100 nM
